From PubChem BioAssay (NCI)
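Step 1: Grow cells in 96-well plates. Step 2: Expose to compound for 48 hours at 5 concentrations. Step 3: Interpolate endpoints linearly; if unreached, use highest concentration. At the GI50, growth is halved. TGI marks complete inhibition of growth.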

Key:
Assay in all cases: NCI anticancer screen, dose series, 48 h
TK-10 renal = tested on: TK-10 renal
NCI-H23 lung = tested on: NCI-H23 lung
SNB-75 CNS = tested on: SNB-75 CNS
COLO 205 colon = tested on: COLO 205 colon
CCRF-CEM leukemia = tested on: CCRF-CEM leukemia
OVCAR-3 ovarian = tested on: OVCAR-3 ovarian
DU-145 prostate = tested on: DU-145 prostate
MALME-3M melanoma = tested on: MALME-3M melanoma
SF-539 CNS = tested on: SF-539 CNS
U251 CNS = tested on: U251 CNS
HCC-2998 colon = tested on: HCC-2998 colon
OVCAR-8 ovarian = tested on: OVCAR-8 ovarian
IGROV1 ovarian = tested on: IGROV1 ovarian
HCT-15 colon = tested on: HCT-15 colon
A498 renal = tested on: A498 renal
SK-OV-3 ovarian = tested on: SK-OV-3 ovarian
SK-MEL-28 melanoma = tested on: SK-MEL-28 melanoma
T-47D breast = tested on: T-47D breast
NCI-H226 lung = tested on: NCI-H226 lung
HS 578T breast = tested on: HS 578T breast
UO-31 renal = tested on: UO-31 renal
PC-3 prostate = tested on: PC-3 prostate
LOX IMVI melanoma = tested on: LOX IMVI melanoma
SK-MEL-2 melanoma = tested on: SK-MEL-2 melanoma
SK-MEL-5 melanoma = tested on: SK-MEL-5 melanoma
HT29 colon = tested on: HT29 colon
SN12C renal = tested on: SN12C renal
KM12 colon = tested on: KM12 colon
ACHN renal = tested on: ACHN renal
SW-620 colon = tested on: SW-620 colon
HL-60(TB) leukemia = tested on: HL-60(TB) leukemia
EKVX NSCLC = tested on: EKVX NSCLC
CAKI-1 renal = tested on: CAKI-1 renal
SF-268 CNS = tested on: SF-268 CNS
HOP-92 NSCLC = tested on: HOP-92 NSCLC
K-562 leukemia = tested on: K-562 leukemia
SF-295 CNS = tested on: SF-295 CNS
RPMI-8226 leukemia = tested on: RPMI-8226 leukemia
HCT-116 colon = tested on: HCT-116 colon
NCI-H460 lung = tested on: NCI-H460 lung
NCI/ADR-RES ovarian = tested on: NCI/ADR-RES ovarian
OVCAR-5 ovarian = tested on: OVCAR-5 ovarian
OVCAR-4 ovarian = tested on: OVCAR-4 ovarian
HOP-62 NSCLC = tested on: HOP-62 NSCLC
MDA-MB-231 breast = tested on: MDA-MB-231 breast
MCF7 breast = tested on: MCF7 breast
UACC-257 melanoma = tested on: UACC-257 melanoma
UACC-62 melanoma = tested on: UACC-62 melanoma
MDA-MB-435 = tested on: MDA-MB-435
SNB-19 CNS = tested on: SNB-19 CNS
786-0 renal = tested on: 786-0 renal
M14 melanoma = tested on: M14 melanoma
RXF 393 renal = tested on: RXF 393 renal
SR leukemia = tested on: SR leukemia
A549 NSCLC = tested on: A549 NSCLC
BT-549 breast = tested on: BT-549 breast
NCI-H322M lung = tested on: NCI-H322M lung
NCI-H522 lung = tested on: NCI-H522 lung

COc1ccc2nccc(C=O)c2c1.O=[N+]([O-])c1cc([N+](=O)[O-])c(O)c([N+](=O)[O-])c1
GI50 (TK-10 renal): 32.2 µM
TGI (TK-10 renal): 88.8 µM
GI50 (NCI-H23 lung): 7.03 µM
TGI (NCI-H23 lung): 25 µM
GI50 (SNB-75 CNS): 14.6 µM
TGI (SNB-75 CNS): 77.1 µM
GI50 (COLO 205 colon): 15 µM
TGI (COLO 205 colon): 67.6 µM
GI50 (CCRF-CEM leukemia): 0.316 µM
TGI (CCRF-CEM leukemia): 54.6 µM
GI50 (OVCAR-3 ovarian): 0.625 µM
TGI (OVCAR-3 ovarian): 2.94 µM
GI50 (DU-145 prostate): 1.79 µM
TGI (DU-145 prostate): 18.9 µM
GI50 (MALME-3M melanoma): 2.02 µM
TGI (MALME-3M melanoma): 29.3 µM
GI50 (SF-539 CNS): 0.379 µM
TGI (SF-539 CNS): 1.66 µM
GI50 (U251 CNS): 0.364 µM
TGI (U251 CNS): 33.3 µM
GI50 (HCC-2998 colon): 32.2 µM
TGI (HCC-2998 colon): 84.6 µM
GI50 (OVCAR-8 ovarian): 0.451 µM
TGI (OVCAR-8 ovarian): 11.9 µM
GI50 (IGROV1 ovarian): 9.07 µM
TGI (IGROV1 ovarian): 66.7 µM
GI50 (HCT-15 colon): 0.216 µM
TGI (HCT-15 colon): > 100 µM
TGI (A498 renal): 51 µM
GI50 (SK-OV-3 ovarian): 20.7 µM
TGI (SK-OV-3 ovarian): > 100 µM
GI50 (SK-MEL-28 melanoma): 4.65 µM
TGI (SK-MEL-28 melanoma): 22.2 µM
GI50 (T-47D breast): 0.0614 µM
TGI (T-47D breast): 0.437 µM
GI50 (NCI-H226 lung): 23.8 µM
TGI (NCI-H226 lung): > 100 µM
GI50 (HS 578T breast): 6.17 µM
TGI (HS 578T breast): 26.7 µM
GI50 (UO-31 renal): 28.5 µM
TGI (UO-31 renal): > 100 µM
GI50 (PC-3 prostate): 3.72 µM
TGI (PC-3 prostate): 28.6 µM
GI50 (LOX IMVI melanoma): 0.616 µM
TGI (LOX IMVI melanoma): 6.35 µM
GI50 (SK-MEL-2 melanoma): 20.5 µM
TGI (SK-MEL-2 melanoma): 78.3 µM
GI50 (SK-MEL-5 melanoma): 2.38 µM
TGI (SK-MEL-5 melanoma): 13.2 µM
GI50 (HT29 colon): 3.01 µM
TGI (HT29 colon): 15.7 µM
GI50 (SN12C renal): 2.31 µM
TGI (SN12C renal): 28.9 µM
GI50 (KM12 colon): 30 µM
TGI (KM12 colon): > 100 µM
GI50 (ACHN renal): 5.44 µM
TGI (ACHN renal): 33.9 µM
GI50 (SW-620 colon): 0.245 µM
TGI (SW-620 colon): 47.7 µM
TGI (HL-60(TB) leukemia): 0.869 µM
GI50 (EKVX NSCLC): 36.6 µM
TGI (EKVX NSCLC): 66.4 µM
GI50 (CAKI-1 renal): 37.2 µM
TGI (CAKI-1 renal): 76 µM
GI50 (SF-268 CNS): 5.4 µM
TGI (SF-268 CNS): 59 µM
GI50 (HOP-92 NSCLC): 0.816 µM
TGI (HOP-92 NSCLC): 50 µM
GI50 (K-562 leukemia): 0.0744 µM
TGI (K-562 leukemia): 0.892 µM
GI50 (SF-295 CNS): 5.69 µM
TGI (SF-295 CNS): 41.4 µM
GI50 (RPMI-8226 leukemia): 0.358 µM
TGI (RPMI-8226 leukemia): 25.8 µM
GI50 (HCT-116 colon): 0.083 µM
TGI (HCT-116 colon): 7.47 µM
GI50 (NCI-H460 lung): 37.3 µM
TGI (NCI-H460 lung): 59.2 µM
GI50 (NCI/ADR-RES ovarian): 1.71 µM
TGI (NCI/ADR-RES ovarian): > 100 µM
GI50 (OVCAR-5 ovarian): 33.8 µM
TGI (OVCAR-5 ovarian): 86.7 µM
GI50 (OVCAR-4 ovarian): 4.32 µM
TGI (OVCAR-4 ovarian): > 100 µM
GI50 (HOP-62 NSCLC): 9.75 µM
TGI (HOP-62 NSCLC): 52.2 µM
GI50 (MDA-MB-231 breast): 9.23 µM
TGI (MDA-MB-231 breast): > 100 µM
GI50 (MCF7 breast): 0.258 µM
TGI (MCF7 breast): 9.47 µM
GI50 (UACC-257 melanoma): 9.91 µM
TGI (UACC-257 melanoma): 61.6 µM
GI50 (UACC-62 melanoma): 11 µM
TGI (UACC-62 melanoma): 68.7 µM
GI50 (MDA-MB-435): 3.89 µM
TGI (MDA-MB-435): 27.1 µM
GI50 (SNB-19 CNS): 2.22 µM
TGI (SNB-19 CNS): 24.2 µM
GI50 (786-0 renal): 16.5 µM
TGI (786-0 renal): > 100 µM
GI50 (M14 melanoma): 3.58 µM
TGI (M14 melanoma): 37.1 µM
GI50 (RXF 393 renal): 87.5 µM
TGI (RXF 393 renal): > 100 µM
GI50 (SR leukemia): 0.025 µM
TGI (SR leukemia): 0.166 µM
GI50 (A549 NSCLC): > 100 µM
TGI (A549 NSCLC): > 100 µM
GI50 (BT-549 breast): 11.7 µM
TGI (BT-549 breast): 77.9 µM
GI50 (NCI-H322M lung): 53.6 µM
TGI (NCI-H322M lung): > 100 µM
GI50 (NCI-H522 lung): 29.6 µM
TGI (NCI-H522 lung): > 100 µM
